The target of this assay is T1, neuroblastoma x glioma hybrid cells (Mus musculus, UniProt P32300).
T1 construct: The radioreceptor assay employed neuroblastoma x glioma hybrid cells; endogenous in cells; host or cells: neuroblastoma x glioma hybrid cells
The assay can be described thus: Radioreceptor assay (opioid activity) with ^3 H-Leuenkephalin as the competing ligand. Type of assay: binding. To be noted: fractions from RP-18; 1.3 g wet weight of chromaffin granules isolated from 30 g of adrenal medulla.

Sequences of proteins named here, by UniProt entry; tags and fusion partners are left off.
UniProt P32300, whole entry: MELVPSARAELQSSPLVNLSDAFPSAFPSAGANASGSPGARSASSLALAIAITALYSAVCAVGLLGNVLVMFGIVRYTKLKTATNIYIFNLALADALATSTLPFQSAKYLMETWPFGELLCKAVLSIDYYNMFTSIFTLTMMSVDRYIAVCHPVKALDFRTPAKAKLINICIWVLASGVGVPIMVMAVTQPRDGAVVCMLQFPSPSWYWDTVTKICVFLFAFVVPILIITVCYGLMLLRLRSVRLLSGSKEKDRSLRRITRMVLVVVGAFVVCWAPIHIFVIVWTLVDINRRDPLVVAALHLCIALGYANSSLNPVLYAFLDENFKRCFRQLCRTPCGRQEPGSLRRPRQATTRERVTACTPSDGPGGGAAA

methionine enkephalin [Met Enk] had a Radioreceptor of 1.0 nmoles/fraction.

For the origin of these results see patent US4264492A, “Enkephalin-like compounds in bovine adrenal medulla” (Hoffmann-La Roche Inc., priority 1979, dated 1981).
